What was measured:
[1] = target: PTP1B-FL (Homo sapiens, UniProt P18031); conditions: PTP1B expressed within sf9 cells
[2] = test system: PTPs (PTP1B-FL, CD45-cat and CD45-FL); assay: Intact sf9 cell assay, expressed PTPs taken together, pNPP hydrolysis; type: cell-based; conditions: intact sf9 cells, 10 mM pNPP
[3] = test system: CD45; conditions: CD45 expressed within sf9 cells

The chains behind the UniProt entries cited, without tags or fusion partners. Where a name states a change or a piece, a line headed by the entry shows the natural chain unless it says otherwise.
UniProt P18031: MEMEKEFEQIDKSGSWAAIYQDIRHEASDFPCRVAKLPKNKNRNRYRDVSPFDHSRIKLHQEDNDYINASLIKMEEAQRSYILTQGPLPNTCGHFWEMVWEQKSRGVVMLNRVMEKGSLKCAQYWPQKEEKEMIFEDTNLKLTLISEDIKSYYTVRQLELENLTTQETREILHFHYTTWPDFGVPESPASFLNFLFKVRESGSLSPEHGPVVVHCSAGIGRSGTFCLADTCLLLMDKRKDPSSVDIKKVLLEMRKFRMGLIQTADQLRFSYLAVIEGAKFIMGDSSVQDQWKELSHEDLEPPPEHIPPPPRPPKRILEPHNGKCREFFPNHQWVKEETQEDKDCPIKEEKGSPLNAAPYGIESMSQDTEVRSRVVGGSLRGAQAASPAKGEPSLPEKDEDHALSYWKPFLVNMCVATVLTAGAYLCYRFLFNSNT

O=[As]c1ccccc1 (stereo not shown)
inhibition of PTP1B in words [1]: non-potent, non-selective inhibitor
potency and selectivity in words [2]: limited potency and selectivity
IC50 ([2]; read-out: IC50 values in the range of, individual PTPs not specified, 15 min preincubation): 7 to 16 µM
inhibition of CD45 in words [3]: non-potent, non-selective inhibitor

From US6329137A (priority 2000, dated 2001)
